Species: Homo sapiens
Test: Selectivity ratio of Ki for human acetylcholine esterase to Ki for human butyrylcholine esterase

SMILES	Ratio Ki
CN(CCCCNc1c2c(nc3ccccc13)CCCC2)CCCNc1c2c(nc3ccccc13)CCCC2	0.01
c1ccc2c(NCCCCCCCCSc3c4c(nc5ccccc35)CCCC4)c3c(nc2c1)CCCC3	16.9
